miR-21 reporter: miR-21 reporter, rising signal | HeLa miR-21 FLuc reporter, luciferase, 48 h | Potency, µM (top dose mostly 38.3 µM) | 340,000 tested, under 10 active | AID 2288; active = well fitted rising curve with a large enough effect; inconclusive = small, poorly fitted or top-dose-only effect; inactive = no such curve, though single readings can be large or run the other way;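 further: miR-21 action dims this reporter so a rising signal means less miR-21 action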
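HeLa cells endogenously expressing miR-21, stably carrying CMV-driven firefly luciferase with a downstream miR-21 binding site, 2000 cells/well. Titrations up to approximately 40 uM, 48 hours; luciferase luminescence read.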
Nrf2 ARE act: Nrf2 pathway activation | AREc32 ARE-luciferase reporter (MCF7-derived line), luminescence, 24 h | Potency, µM (titrated, usually from 46.1 µM), usual class: activators | actives 0.31% (n = 410,000) | AID 624171; also: nearly all actives have a fitted effect of over 65% in size
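ARE-driven firefly luciferase activity in AREc32 cells measured after a 24 hr compound exposure at 37 deg C, using Steady-Glo reagent and a 30 min room-temperature hold.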
Nrf2 block: Nrf2 pathway inhibition; A549 ARE-Fluc reporter, luciferase luminescence, 18-24 h; Potency, µM (series often up to 46 µM), most hits filed as inhibitors; actives 2.1% (n = 360,000); AID 504444; also: nearly all actives have a fitted effect of over 60% in size
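Nrf2 activity is the BugLite luminescence, read 15 min after reagent at room temperature, following CellTiter-Fluor cytotoxicity readout (30 min, 37C). Compound titrations were applied for 18-24 h to 5000 A549 ARE_Fluc cells/well in 5% FBS OPTI-MEM.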
ClpP mod: qHTS Assay for Activators of ClpP; purified B. subtilis ClpP, FRET peptide cleavage, 20 min; Potency, µM (top dose mostly 57.5 µM); actives 1.9% (n = 340,000); AID 651965, 2013; active = well fitted falling curve with a large enough effect; inconclusive = small, poorly fitted or top-dose-only effect; inactive = no such curve, though single readings can be large or run the other way; also: the source files actives as falling curves though it sought activators and does not explain the sign; nearly all actives have a fitted effect of over 65% in size
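Buffer: 100 mM Tris/HCl pH8, 100 mM KCl, 0.05% low protease BSA, 2.5% glycerol, 0.01% Tween-20. ClpP 10 microg/mL final; 20 min RT; delta FRET normalized to ADEP and DMSO controls.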
IL-2 act: activates IL-2 in a cell-based reporter assay; IL-2 activation reporter assay, cell-based qHTS; stimulated with anti-CD3/CD4/CD28 beads; in transgenic mouse T cells; activation, % (series mostly up to about 46 µM); actives 0.065% (n = 360,000); AID 652025; in the data active = activation above about 50%; inconclusive = mostly about 30% to 49%
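Unstimulated transgenic mouse T cells preincubated 60 min with compound, then stimulated with anti-CD3/anti-CD4-coated beads plus anti-CD28 for 18 h at 37 degrees C. IL-2 response read as EGFP and DsRed fluorescence by plate cytometry.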
A549 tox: A549 cytotoxicity, counter-screen for Nrf2 inhibitors | A549 ARE-Fluc cells, CellTiter-Fluor viability, 18-24 h | Potency, µM (doses to about 46 µM), most hits filed as inhibitors | actives 0.16% (n = 390,000)
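A549 ARE_Fluc cells in 5% FBS OPTI-MEM were exposed to compounds in concentration-response for 18-24 h at 37 deg C. Viability was read by CellTiter-Fluor fluorescence (Ex 405/Em 525) after 30 min, before the luciferase read.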
A number is an active result; . = inactive; ? = inconclusive; / = no result; ! = not active in a repeat; [ ] = dose if it differs, or a comment. Shown are actives, neighbours in structure and some others; about 3.7% of the full set was active somewhere. Unless noted, calls follow the shape of the dose curve; as a rule, active = well fitted curve in the direction sought with a large enough effect; inconclusive = small, poorly fitted or top-dose-only effect, or another doubt; inactive = no such curve, though single readings can be large; an effect the other way counts as inactive or inconclusive.

SMILES	miR-21 reporter	Nrf2 ARE act	Nrf2 block	ClpP mod	IL-2 act	A549 tox
COc1ccc(N2C(=O)c3ccccc3NC2c2ccc(OC)c(COc3ccccn3)c2)cc1 (stereo unspecified)	.	.	?	25µM!	.	.
COc1ccc(C2Nc3ccccc3C(=O)N2c2ccc(C)cc2)cc1Cn1nnc2ccccc21 (stereo unspecified)	.	.	.	32µM	.	.
CCOc1cc(C2Nc3ccccc3C(=O)N2c2ccccc2OC)ccc1O (stereo unspecified)	.	.	.	?	.	.
COc1ccc(-c2onc(C)c2C)cc1S(=O)(=O)N(C)Cc1ccco1	.	.	?	.	/	.
Nc1nc[nH]c(=O)c1N	/	/	/	.	/	/
COC(=O)c1ccccc1NC(=O)c1c(NC(=O)c2ccco2)sc2c1CCC(C(C)(C)C)C2 (stereo unspecified)	.	.	.	.	/	.
COc1ccc(C2Nc3ccccc3C(=O)N2Cc2ccc(C(C)(C)C)cc2)cc1COc1ccc(NC(C)=O)cc1 (stereo unspecified)	/	/	18µM	/	/	.
CCCN1C(=O)c2ccccc2NC1c1ccc(OC)c(CSc2ccccn2)c1 (stereo unspecified)	.	.	?	.	.	.
COc1ccc(OCc2cc(C3Nc4ccccc4C(=O)N3Cc3ccccc3)ccc2OC)cc1 (stereo unspecified)	/	/	.	/	/	.
COc1ccc(C2Nc3ccccc3C(=O)N2Cc2ccccc2)cc1COc1ccccn1 (stereo unspecified)	.	.	.	25µM	.	.
COc1ccc(N2C(=O)c3ccccc3NC2c2ccc(OC)c(CSc3ccccn3)c2)cc1 (stereo unspecified)	.	.	.	25µM	.	.[1.84 µM]
COc1ccc(Cl)cc1C=CC=Nc1ccccc1O	/	10µM	.	.	.	.
CCOC(=O)c1c(C2COc3ccccc3O2)csc1NC(=O)c1ccccc1 (stereo unspecified)	.	.	.	14µM	.	.
CCOC(=O)c1c(NC(=O)C2COc3ccccc3O2)sc2c1CCN(Cc1ccccc1)C2 (stereo unspecified)	.	.	.	25µM	.	.
NC(=O)c1c(NC(=O)C2COc3ccccc3O2)sc2c1CCN(Cc1ccccc1)C2 (stereo unspecified)	.	.	.	/	401	.
COC(=O)N1CCc2c(sc(NC(=O)C3COc4ccccc4O3)c2C(N)=O)C1 (stereo unspecified)	/	.	?	.	.	.
CCOC(=O)c1c(C2COc3ccccc3O2)csc1N (stereo unspecified)	.	.	/	.	.	.
CCCOC(=O)C1=C(C)NC2=C(C(=O)CCC2)C1c1cccs1 (stereo unspecified)	.	.	.	?	.	.
CCCOC(=O)C1=C(C)NC2=C(C(=O)CCC2)C1c1cccc(OC)c1OC (stereo unspecified)	.	.	.	25µM	.	.
COCCCNC(=O)N1CCN(c2nnc(C)c3c(C)n(-c4ccc(Cl)cc4)nc23)CC1	.	.	.	.	/	.
O=C(CN1C=NS(=O)(=O)c2ccccc21)Nc1ccc(F)cc1	.	.	/	.	/	.
O=C1c2cccc3cccc(c23)C(=O)N1c1ccccn1	.	.	.	.	.	.
CCc1nnc(N2C(=O)c3cccc4cccc(c34)C2=O)s1	.	.	.	16µM	.	.
O=C1c2cccc3cccc(c23)C(=O)N1c1ccncc1	.	.	?	10µM	.	.
O=C1c2cccc3cccc(c23)C(=O)N1c1cccnc1	.	.	.	16µM	.	.
SMILES	miR-21 reporter	Nrf2 ARE act	Nrf2 block	ClpP mod	IL-2 act	A549 tox
Cc1ccccc1N1C(=O)c2cccc3cccc(c23)C1=O	.	.	.	.	.	.
Cc1cccc(NC(=O)COC(=O)Cc2cccs2)c1C	/	.	.	25µM	.	.
Cc1ccc(Cl)cc1NC(=O)c1ccc2nc(CCc3ccccc3)oc2c1	.	.	/	.	/	.
COc1ccc(CN(C)C(=O)/C=C/c2ccc(S(=O)(=O)N3CCOCC3)cc2)cc1F	/	.	?	.	.	.
CN(Cc1ccc(OC(F)F)cc1)C(=O)/C=C/c1ccc(S(=O)(=O)N2CCOCC2)cc1	/	.	23µM	.	.	.
CN(Cc1ccc(OC(F)F)cc1)C(=O)C1CCN(S(=O)(=O)c2ccc3c(c2)OCCO3)CC1	/	.	23µM	.	.	.
CN(CC(=O)Nc1ccc(F)cc1)C(=O)C1CCN(S(=O)(=O)c2ccc3c(c2)OCCO3)CC1	/	.	?	/	.	.
Cc1cccc2c(=O)cc(CSc3ccccc3NC(=O)c3cccc(F)c3)[nH]c12	.	.	/	.	/	.
Cc1nn(C)c2c1c(C(F)(F)F)cc(=O)n2CC(=O)Nc1ccc(F)cc1F	.	.	?	.	/	?
CC1CN(C(=O)N2CCC(C(=O)NCCCc3ccccc3)CC2)c2ccccc2O1 (stereo unspecified)	.	.	.	.	/	.
COc1ccc(OC)c2c(/C=C/c3c(C)[nH]c4ccccc34)ccnc12	/	/	/	.	/	/
COc1ccc(C(=O)N2CCN(c3nc4c(OC)cccc4s3)CC2)cc1OC	.	.	/	.	/	.
NS(=O)(=O)c1ccc(NC(=O)c2cc(-c3cccs3)nc3ccccc23)cc1	.	?	?	?	.	.
CN(C)S(=O)(=O)c1ccc(NC(=O)c2cc(-c3cccs3)nc3ccccc23)cc1	.	.	.	16µM	.	.
COc1cccc(C(=O)COC(=O)c2cc(-c3cccs3)nc3ccccc23)c1	.	.	.	.	/	.
Cc1cccc2sc(NNC(=O)c3cc(-c4cccs4)nc4ccccc34)nc12	.	.	23µM	.	.	?
COc1cccc(CN(C)C(=O)c2cc(-c3cccs3)nc3ccccc23)c1	.	.	?	32µM	.	.
Cc1ccc(NC(=O)c2cc(-c3cccs3)nc3ccccc23)c(C)c1	.	.	.	.	/	.
CCN(CC)S(=O)(=O)c1ccc(NC(=O)c2cc(-c3cccs3)nc3ccccc23)cc1	.	.	.	28µM	.	.
CCc1cccc2c(C(O)(c3c[nH]c4c(CC)cccc34)c3c[nH]c4c(CC)cccc34)c[nH]c12	/	/	/	.	/	/
O=C(NCc1cccc(F)c1)C1=Cc2cc(Br)ccc2OC1	.	.	/	.	/	.
Cc1ccc(-c2cc(C(=O)N3CCN(S(=O)(=O)c4ccc(Br)cc4)CC3)[nH]n2)c(C)c1	.	.	.	.	/	.
CCC(=O)N1CCc2cc(CNC(=O)c3ccc(F)cc3)ccc21	.	.	/	.	/	.
O=C(CCc1ccccc1)NNC(=S)NC(=O)c1ccc(Cl)cc1	.	.	21µM	.	.	.
